Data from the supplement of paper PMC5998384.

Columns and labels:
HeLa Kyoto [1] = assay: thermal stability score vs G1/S (z-score of summed log2 fold changes over temperatures); higher = more thermally stable than in G1/S
HeLa Kyoto [2] = assay: melting temperature (median over replicates), in situ; higher = more thermally stable
HeLa Kyoto [3] = assay: solubility change mitosis vs G1/S (difference of NP-40 vs SDS log2 ratios) (log2 ratio difference); higher = more soluble in mitosis
HeLa Kyoto [4] = assay: solubility in G1/S (NP-40 vs SDS abundance) (log2 ratio); higher = more soluble; conditions: cell cycle stage: G1/S
[5] = cell cycle stage: early G1 (4.5 h after nocodazole release)
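Wherever melting temperature (median over replicates), in situ is given: HeLa Kyoto cells synchronized by double thymidine or nocodazole block, proteins quantified by TMT10plex mass spectrometry, three independent biological replicates.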
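Wherever solubility change mitosis vs G1/S (difference of NP-40 vs SDS log2 ratios) is given: synchronized HeLa Kyoto cells (double thymidine block for G1/S, nocodazole release for mitosis), protein amounts in NP-40 versus SDS lysates quantified by mass spectrometry, three biological replicates.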
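Wherever solubility in G1/S (NP-40 vs SDS abundance) is given: HeLa Kyoto cells arrested at G1/S by double thymidine block, proteins quantified by TMT10plex mass spectrometry in mild NP-40 versus SDS extracts, three biological replicates.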
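Wherever thermal stability score vs G1/S (z-score of summed log2 fold changes over temperatures) is given: synchronized HeLa Kyoto cells, proteins quantified by TMT10plex mass spectrometry, three biological replicates, mitosis taken 0.5 h after nocodazole release, G1/S directly after double thymidine block.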

“MSVAGLKKQFYKASQLVSEKVGGAEGTKLDDDFKEMEKKVDVTSKAVTEVLARTIEYLQPNPASRAKLTMLNTVSKIRGQVKNPGYPQSEGLLGECMIRHGKELGGESNFGDALLDAGESMKRLAEVKDSLDIEVKQNFIDPLQNLCEKDLKEIQHHLKKLEGRRLDFDYKKKRQGKIPDEELRQALEKFEESKEVAETSMHNLLETDIEQVSQLSALVDAQLDYHRQAVQILDELAEKLKRRMREASSRPKREYKPKPREPFDLGEPEQSNGGFPCTTAPKIAASSSFRSSDKPIRTPSRSMPPLDQPSCKALYDFEPENDGELGFHEGDVITLTNQIDENWYEGMLDGQSGFFPLSYVEVLVPLPQ [SH3GL1]” was tested, and the thermal stability score (HeLa Kyoto [1]; [5]) was -0.823, the thermal stability score (HeLa Kyoto [1]; cell cycle stage: mitosis) was 0.873 and the melting temperature (HeLa Kyoto [2]; cell cycle stage: G1/S) was 49.2 °C. For the same substance, the melting temperature (HeLa Kyoto [2]; cell cycle stage: mitosis) was 49.7 °C, the “solubility change mitosis (log2)” value (HeLa Kyoto [3]) was 0.0805 and the “solubility in G1/S (log2)” value (HeLa Kyoto [4]) was 0.788.

In the case of “MVDMMDLPRSRINAGMLAQFIDKPVCFVGRLEKIHPTGKMFILSDGEGKNGTIELMEPLDEEISGIVEVVGRVTAKATILCTSYVQFKEDSHPFDLGLYNEAVKIIHDFPQFYPLGIVQHD [RPA3]”, the thermal stability score (HeLa Kyoto [1]; [5]) is reported as -0.641, the thermal stability score (HeLa Kyoto [1]; cell cycle stage: mitosis) is reported as -0.0893 and the melting temperature (HeLa Kyoto [2]; cell cycle stage: G1/S) is reported as 52.7 °C. For the same substance, the melting temperature (HeLa Kyoto [2]; cell cycle stage: mitosis) was 51.8 °C, the “solubility change mitosis (log2)” value (HeLa Kyoto [3]) was 0.0766 and the “solubility in G1/S (log2)” value (HeLa Kyoto [4]) was 0.244.

For “MVHAEAFSRPLSRNEVVGLIFRLTIFGAVTYFTIKWMVDAIDPTRKQKVEAQKQAEKLMKQIGVKNVKLSEYEMSIAAHLVDPLNMHVTWSDIAGLDDVITDLKDTVILPIKKKHLFENSRLLQPPKGVLLYGPPGCGKTLIAKATAKEAGCRFINLQPSTLTDKWYGESQKLAAAVFSLAIKLQPSIIFIDEIDSFLRNRSSSDHEATAMMKAQFMSLWDGLDTDHSCQVIVMGATNRPQDLDSAIMRRMPTRFHINQPALKQREAILKLILKNENVDRHVDLLEVAQETDGFSGSDLKEMCRDAALLCVREYVNSTSEESHDEDEIRPVQQQDLHRAIEKMKKSKDAAFQNVLTHVCLD [ATAD1]”, the thermal stability score (HeLa Kyoto [1]; [5]) was 1.73, the thermal stability score (HeLa Kyoto [1]; cell cycle stage: mitosis) was 1.74 and the melting temperature (HeLa Kyoto [2]; cell cycle stage: G1/S) was 50.5 °C. The melting temperature (HeLa Kyoto [2]; cell cycle stage: mitosis) was 49.7 °C, the “solubility change mitosis (log2)” value (HeLa Kyoto [3]) was -0.0787 and the “solubility in G1/S (log2)” value (HeLa Kyoto [4]) was 0.251.

“MVSKRRLSKSEDKESLTEDASKTRKQPLSKKTKKSHIANEVEENDSIFVKLLKISGIILKTGESQNQLAVDQIAFQKKLFQTLRRHPSYPKIIEEFVSGLESYIEDEDSFRNCLLSCERLQDEEASMGASYSKSLIKLLLGIDILQPAIIKTLFEKLPEYFFENKNSDEINIPRLIVSQLKWLDRVVDGKDLTTKIMQLISIAPENLQHDIITSLPEILGDSQHADVGKELSDLLIENTSLTVPILDVLSSLRLDPNFLLKVRQLVMDKLSSIRLEDLPVIIKFILHSVTAMDTLEVISELREKLDLQHCVLPSRLQASQVKLKSKGRASSSGNQESSGQSCIILLFDVIKSAIRYEKTISEAWIKAIENTASVSEHKVFDLVMLFIIYSTNTQTKKYIDRVLRNKIRSGCIQEQLLQSTFSVHYLVLKDMCSSILSLAQSLLHSLDQSIISFGSLLYKYAFKFFDTYCQQEVVGALVTHICSGNEAEVDTALDVLLELVVLNPSAMMMNAVFVKGILDYLDNISPQQIRKLFYVLSTLAFSKQNEASSHIQDDMHLVIRKQLSSTVFKYKLIGIIGAVTMAGIMAADRSESPSLTQERANLSDEQCTQVTSLLQLVHSCSEQSPQASALYYDEFANLIQHEKLDPKALEWVGHTICNDFQDAFVVDSCVVPEGDFPFPVKALYGLEEYDTQDGIAINLLPLLFSQDFAKDGGPVTSQESGQKLVSPLCLAPYFRLLRLCVERQHNGNLEEIDGLLDCPIFLTDLEPGEKLESMSAKERSFMCSLIFLTLNWFREIVNAFCQETSPEMKGKVLTRLKHIVELQIILEKYLAVTPDYVPPLGNFDVETLDITPHTVTAISAKIRKKGKIERKQKTDGSKTSSSDTLSEEKNSECDPTPSHRGQLNKEFTGKEEKTSLLLHNSHAFFRELDIEVFSILHCGLVTKFILDTEMHTEATEVVQLGPPELLFLLEDLSQKLESMLTPPIARRVPFLKNKGSRNIGFSHLQQRSAQEIVHCVFQLLTPMCNHLENIHNYFQCLAAENHGVVDGPGVKVQEYHIMSSCYQRLLQIFHGLFAWSGFSQPENQNLLYSALHVLSSRLKQGEHSQPLEELLSQSVHYLQNFHQSIPSFQCALYLIRLLMVILEKSTASAQNKEKIASLARQFLCRVWPSGDKEKSNISNDQLHALLCIYLEHTESILKAIEEIAGVGVPELINSPKDASSSTFPTLTRHTFVVFFRVMMAELEKTVKKIEPGTAADSQQIHEEKLLYWNMAVRDFSILINLIKVFDSHPVLHVCLKYGRLFVEAFLKQCMPLLDFSFRKHREDVLSLLETFQLDTRLLHHLCGHSKIHQDTRLTQHVPLLKKTLELLVCRVKAMLTLNNCREAFWLGNLKNRDLQGEEIKSQNSQESTADESEDDMSSQASKSKATEDGEEDEVSAGEKEQDSDESYDDSD [FANCD2]” showed a thermal stability score (HeLa Kyoto [1]; [5]) of -3.56, a thermal stability score (HeLa Kyoto [1]; cell cycle stage: mitosis) of -0.802 and a melting temperature (HeLa Kyoto [2]; cell cycle stage: G1/S) of 49.7 °C. For the same substance, the melting temperature (HeLa Kyoto [2]; cell cycle stage: mitosis) was 49.5 °C, the “solubility change mitosis (log2)” value (HeLa Kyoto [3]) was -0.122 and the “solubility in G1/S (log2)” value (HeLa Kyoto [4]) was -0.228.

With TLN1 the thermal stability score (HeLa Kyoto [1]; [5]) was 0.927, the thermal stability score (HeLa Kyoto [1]; cell cycle stage: mitosis) was 2.82 and the melting temperature (HeLa Kyoto [2]; cell cycle stage: G1/S) was 49.7 °C. For the same substance, the melting temperature (HeLa Kyoto [2]; cell cycle stage: mitosis) was 49.8 °C, the “solubility change mitosis (log2)” value (HeLa Kyoto [3]) was -0.0708 and the “solubility in G1/S (log2)” value (HeLa Kyoto [4]) was -0.0178.
